We go through one molecule from ChEMBL document CHEMBL3785048, “Effects of polar receptor agonists designed for the periphery on ATP-induced Ca2+release from keratinocytes” (Medchemcomm, 2016).

Chains of the proteins cited; added tags and fusions are not shown. Lines headed by an entry give the natural chain unless they say otherwise; changes in a name come on top.
UniProt P41145: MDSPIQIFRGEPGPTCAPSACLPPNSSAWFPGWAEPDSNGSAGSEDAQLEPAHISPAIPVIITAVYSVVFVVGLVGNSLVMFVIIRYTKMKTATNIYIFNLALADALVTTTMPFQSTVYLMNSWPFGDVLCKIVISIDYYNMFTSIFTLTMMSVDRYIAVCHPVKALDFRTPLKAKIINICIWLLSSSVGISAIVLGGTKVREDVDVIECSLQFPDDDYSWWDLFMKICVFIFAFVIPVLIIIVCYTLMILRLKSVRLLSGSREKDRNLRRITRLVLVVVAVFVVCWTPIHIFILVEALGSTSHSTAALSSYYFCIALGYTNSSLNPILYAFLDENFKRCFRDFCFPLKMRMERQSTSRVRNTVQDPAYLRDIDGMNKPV

Active and inactive are the calls of the source. The rule behind the calls is not given here.

The target in this assay is Kappa-type opioid receptor (Homo sapiens, UniProt P41145). Kind of assay: Agonist activity at kappa opioid receptor in ATP stimulated human HaCaT cells assessed as reduction in intracellular Ca2+ release at 1 uM after 45 mins by FURA-2AM dye based luminescence spectrophotometry method. Format: functional, cell-based.

As for `O=C(Cc1ccc(Cl)c(Cl)c1)N1CCNC2CCCC(N3CCCC3)C21` (stereo unspecified), the inhibition result was “Active”.
